Experimental data taken from article PMC2862725 (Molecular cancer therapeutics, 2009).
Read-outs that look alike come from different tables or passages of the source.

Tests used:
[1] = vIII mutant tumor group
[2] = wild-type tumor group
[3] = test system: phosphorylated-ERK1/2 (pERK) in LN229-wild-type EGFR tumors; design: species or system athymic swiss mice (nu/nu); conditions: mouse, in vivo
[4] = test system: phosphorylated-ERK1/2 (pERK) in LN229-EGFRvIII mutant tumors; design: species or system athymic swiss mice (nu/nu); conditions: mouse, in vivo
[5] = 30 mg/kg/d PO × 15 days, mean (% CV)
[6] = 55 mg/kg/d PO × 15 days, mean (% CV)

With COc1cc2ncnc(Nc3ccc(F)c(Cl)c3)c2cc1OCCCN1CCOCC1 [gefitinib, Gefitinib] the “difference in observed plasma and tumor area under the concentration-time curves between Day 1 and Day 15” value [1] was “less than 16%”, the “K(12) inter-compartmental rate constant” value [1, 5] was 0.74 (8.3) h^−1 and the “K(21) inter-compartmental rate constant” value [1, 5] was 0.50 (7.2) h^−1. The “difference in observed plasma and tumor area under the concentration-time curves between Day 1 and Day 15” value [2] was “less than 16%”, the “K(12) inter-compartmental rate constant” value [2, 6] was 1.65 (6.7) h^−1 and the “K(21) inter-compartmental rate constant” value [2, 6] was 0.55 (6.3) h^−1. For the same compound, the “Kout(0) (baseline rate constant for degradation and dephosphorylation of pERK)” value [3] was 6.4 (7.3) h^−1, the “Ktr (rate constant from pEGFR to pERK compartment)” value [3] was 2.2 (20.0) h^−1 and the “r (arbitrary constant for reduction of Kout)” value [3] was 0.0006 (30.5). For the same compound, the “Kout(0) (baseline rate constant for degradation and dephosphorylation of pERK)” value [4] was 6.7 (9.6) h^−1, the “Ktr (rate constant from pEGFR to pERK compartment)” value [4] was 1.4 (24.7) h^−1 and the “r (arbitrary constant for reduction of Kout)” value [4] was 0.0005 (42.8).
